Usually pIC50 stands for the IC50 on a negative log10 scale, so that one unit is a factor of ten.

Protein sequences, listed by entry. Tags and fused reporters are not part of them.
UniProt P19643, whole entry: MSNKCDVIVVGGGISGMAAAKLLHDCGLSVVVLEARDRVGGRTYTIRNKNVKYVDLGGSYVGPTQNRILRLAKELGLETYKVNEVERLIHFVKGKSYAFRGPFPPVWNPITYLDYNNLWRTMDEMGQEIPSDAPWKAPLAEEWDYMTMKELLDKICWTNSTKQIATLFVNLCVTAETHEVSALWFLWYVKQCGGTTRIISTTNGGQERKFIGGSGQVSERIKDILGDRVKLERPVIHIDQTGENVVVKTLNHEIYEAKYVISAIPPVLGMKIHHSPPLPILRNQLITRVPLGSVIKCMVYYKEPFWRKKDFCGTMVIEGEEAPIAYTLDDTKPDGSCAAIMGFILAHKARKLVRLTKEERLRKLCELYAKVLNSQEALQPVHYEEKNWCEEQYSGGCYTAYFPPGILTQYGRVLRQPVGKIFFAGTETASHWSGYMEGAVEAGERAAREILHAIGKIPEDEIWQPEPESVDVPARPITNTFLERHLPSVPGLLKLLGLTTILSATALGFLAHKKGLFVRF

pIC50: −log10 of the molar value.

From ChEMBL document CHEMBL1133545, “Inhibition of monoamine oxidases by functionalized coumarin derivatives: biological activities, QSARs, and 3D-QSARs” (J Med Chem, 2000) come the findings set out here.

The assay concerns the target Amine oxidase [flavin-containing] B (Rattus norvegicus, UniProt P19643).

In turn, `CC(=O)Nc1cccc(COc2ccc3c(C)c(C)c(=O)oc3c2)c1` gave a pIC50 of 6.60.
